Measurements taken from paper PMC5355811 (Nature Communications, 2017).
“And” between values parts separate entries of the source, which are not always exact repeats. Equal entries are not always repeated. Where two headings read alike, the source gives them in different places.

Legend:
Assay type in all cases: cell-based
[1] = tested on: Ba/F3 cells of EGFR-C797S/del19; test: Drug sensitivity screening at 100 nM, Ba/F3 EGFR-C797S/del19; details: 72 h, DMSO = 100; for Relative cell viability (ratio to DMSO control), del19/C797S / viability at 0.1 µM: 100 nM inhibitor, mean of three independent experiments (Fig. 1a data); for Cell inhibition rate relative to DMSO in C797S/del19 Ba/F3 cells: 100 nM; for viability at 0.1 µM: Mus musculus, BaF3, 72 h, read-out: Relative cell viability (ratio to DMSO control), del19/C797S
[2] = tested on: Ba/F3 cells of EGFR-C797S/T790M/del19; test: Drug sensitivity screening at 100 nM, Ba/F3 EGFR-C797S/T790M/del19; details: for Relative cell viability (ratio to DMSO control), del19/T790M/C797S: 100 nM inhibitor, mean of three independent experiments (Fig. 1a data); for Relative cell viability (ratio to DMSO control), del19/T790M/C797S / Cell inhibition rate relative to DMSO in C797S/T790M/del19 Ba/F3 cells: 72 h, DMSO = 100; for Cell inhibition rate relative to DMSO in C797S/T790M/del19 Ba/F3 cells: 100 nM
[3] = tested on: Ba/F3 cells expressing EGFR-C797S/L858R; test: CellTiter-Glo cell viability assay, Ba/F3 EGFR-C797S/L858R; details: Mus musculus
[4] = tested on: phosphorylation of EGFR in Ba/F3 cells expressing EGFR-C797S/T790M/L858R; test: Western blotting of EGFR signalling, Ba/F3 triple-L858R; details: 6 h, up to 1000 nM
[5] = tested on: Ba/F3 cells expressing EGFR-C797S/del19; test: CellTiter-Glo cell viability assay, Ba/F3 EGFR-C797S/del19; details: Mus musculus, BaF3; Table 1a; 72 h
[6] = BaF3, Supplementary Fig. 8e, 72 h, read-out: IC50, Ba/F3 C797S/L858R

## C=CCNC1=C2C[C@@H](C)C[C@H](OC)[C@H](O)[C@@H](C)/C=C(\C)[C@H](OC(N)=O)[C@@H](OC)/C=C\C=C(/C)C(=O)NC(=CC1=O)C2=O [17-AAG]
[1]
  Relative cell viability (ratio to DMSO control), del19/C797S: 42.00 and 41.9985
[1]; experiment 1
  Cell inhibition rate relative to DMSO in C797S/del19 Ba/F3 cells: 42.4791
[1]; experiment 2
  Cell inhibition rate relative to DMSO in C797S/del19 Ba/F3 cells: 43.3841
[1]; experiment 3
  Cell inhibition rate relative to DMSO in C797S/del19 Ba/F3 cells: 40.1323
[2]
  Relative cell viability (ratio to DMSO control), del19/T790M/C797S: 70.41 and 70.4124
[2]; experiment 1
  Cell inhibition rate relative to DMSO in C797S/T790M/del19 Ba/F3 cells: 62.3983
[2]; experiment 2
  Cell inhibition rate relative to DMSO in C797S/T790M/del19 Ba/F3 cells: 74.757
[2]; experiment 3
  Cell inhibition rate relative to DMSO in C797S/T790M/del19 Ba/F3 cells: 74.082

## Nc1ncnc2c1c(-c1cccc(OCc3ccccc3)c1)cn2[C@H]1C[C@@H](CN2CCC2)C1 [AEW541]
[2]; experiment 2
  Cell inhibition rate relative to DMSO in C797S/T790M/del19 Ba/F3 cells: 133.665
[2]; experiment 3
  Cell inhibition rate relative to DMSO in C797S/T790M/del19 Ba/F3 cells: 138.399

## COc1cc(N2CCC(N(C)C)CC2)ccc1Nc1ncc(Cl)c(Nc2ccccc2P(C)(C)=O)n1 [AP26113-analog]
[3]; [6]
  IC50: 108 nM
[4]
  phosphorylation of EGFR and downstream signal pathway, Ba/F3 C797S/T790M/L858R: inhibited the phosphorylation of EGFR

## COc1cc(N2CCC(N3CCN(C)CC3)CC2)ccc1Nc1ncnc(Nc2ccccc2S(=O)(=O)C(C)C)n1 [ASP3026]
[3]; [6]
  IC50: 1040 nM
[4]
  phosphorylation of EGFR and downstream signal pathway, Ba/F3 C797S/T790M/L858R: didn’t suppress the signals

## COc1cc(N2CCC(N)CC2)ccc1Nc1ncc(Cl)c(-c2c[nH]c3ccccc23)n1 [AZD3463]
[3]; [6]
  IC50: 374 nM
[1]
  viability at 0.1 µM: 22.1%
[2]; experiment 1
  Cell inhibition rate relative to DMSO in C797S/T790M/del19 Ba/F3 cells: 96.0576

## CCc1cc2c(cc1N1CCC(N3CCOCC3)CC1)C(C)(C)c1[nH]c3cc(C#N)ccc3c1C2=O [Alectinib, alectinib]
[2]; experiment 2
  Cell inhibition rate relative to DMSO in C797S/T790M/del19 Ba/F3 cells: 159.496
[2]; experiment 3
  Cell inhibition rate relative to DMSO in C797S/T790M/del19 Ba/F3 cells: 143.275

## COc1cc(N2CCC(N3CCN(C)CC3)CC2)ccc1Nc1ncc(Cl)c(Nc2ccccc2P(C)(C)=O)n1 [Brigatinib, brigatinib]
[3]; BaF3, 72 h, read-out: IC50, Ba/F3 C797S/L858R
  IC50: 298 nM
[1]
  viability at 0.1 µM: 5.64%
[4]
  phosphorylation of EGFR and downstream signal pathway, Ba/F3 C797S/T790M/L858R: inhibited the phosphorylation of EGFR

## C[C@]12O[C@H](C[C@]1(O)CO)n1c3ccccc3c3c4c(c5c6ccccc6n2c5c31)CNC4=O [CEP701]
[2]; Mus musculus, BaF3, 72 h, read-out: Relative cell viability (ratio to DMSO control), del19/T790M/C797S
  viability at 0.1 µM: 16.6%

## Cc1nc2ccc(-n3ncc(C(=O)c4cc5ccccc5[nH]4)c3N)cc2[nH]1 [CH5183284]
[1]
  Relative cell viability (ratio to DMSO control), del19/C797S: 103.89 and 103.887
[1]; experiment 1
  Cell inhibition rate relative to DMSO in C797S/del19 Ba/F3 cells: 103.503
[1]; experiment 2
  Cell inhibition rate relative to DMSO in C797S/del19 Ba/F3 cells: 100.553
[1]; experiment 3
  Cell inhibition rate relative to DMSO in C797S/del19 Ba/F3 cells: 107.604
[2]
  Relative cell viability (ratio to DMSO control), del19/T790M/C797S: 116.81 and 116.805
[2]; experiment 1
  Cell inhibition rate relative to DMSO in C797S/T790M/del19 Ba/F3 cells: 102.347
[2]; experiment 2
  Cell inhibition rate relative to DMSO in C797S/T790M/del19 Ba/F3 cells: 117.224
[2]; experiment 3
  Cell inhibition rate relative to DMSO in C797S/T790M/del19 Ba/F3 cells: 130.844

## Cc1cc(Nc2ncc(Cl)c(Nc3ccccc3S(=O)(=O)C(C)C)n2)c(OC(C)C)cc1C1CCNCC1 [Ceritinib, ceritinib]
[4]
  phosphorylation of EGFR and downstream signal pathway, Ba/F3 C797S/T790M/L858R: didn’t suppress the signals

## COc1cc2nccc(Oc3ccc(NC(=O)NC4CC4)c(Cl)c3)c2cc1C(N)=O [E7080]
[1]
  Relative cell viability (ratio to DMSO control), del19/C797S: 104.33 and 104.333
[1]; experiment 1
  Cell inhibition rate relative to DMSO in C797S/del19 Ba/F3 cells: 95.2987
[1]; experiment 2
  Cell inhibition rate relative to DMSO in C797S/del19 Ba/F3 cells: 100.841
[1]; experiment 3
  Cell inhibition rate relative to DMSO in C797S/del19 Ba/F3 cells: 116.859
[2]
  Relative cell viability (ratio to DMSO control), del19/T790M/C797S: 144.87 and 144.865
[2]; experiment 1
  Cell inhibition rate relative to DMSO in C797S/T790M/del19 Ba/F3 cells: 132.448
[2]; experiment 2
  Cell inhibition rate relative to DMSO in C797S/T790M/del19 Ba/F3 cells: 155.081
[2]; experiment 3
  Cell inhibition rate relative to DMSO in C797S/T790M/del19 Ba/F3 cells: 147.066

## Cc1cc(C(=O)Nc2nc3cccc(Cl)c3n2[C@@H]2CCCCN(C(=O)/C=C/CN(C)C)C2)ccn1 [EGF-816]
[5]
  IC50: 1240 nM
[3]; BaF3, Table 1b, 72 h, read-out: IC50, Ba/F3-EGFR-C797S/L858R
  IC50: 1660 nM
